# Source: publication PMC8093974
# Biological target: complement factor H (UniProt P08603)
substance,measurement,value
Uromodulin (from UniProt P07911 25-614) (natural protein),"haemolysis rate of sheep erythrocytes in serum with anti‐cFH antibody and 3 μg exogenous cFH (50% without UMOD), UMOD 5, 10 and 20 μg",30%
